Assays:
[1] = target: recombinant human nociceptin receptor (ORL-1) (Homo sapiens, UniProt P41146); experiment: Nociceptin receptor binding assay ([3H]-nociceptin, HEK293 cell membranes); conditions: read-out: ORL1 Ki, mean where tested more than once
Mu opioid receptor = Mu opioid receptor (Rattus norvegicus, UniProt P33535); experiment: Rat brain mu opioid receptor binding ([3H]DAMGO); conditions: read-out: Mu Ki; rat forebrain membranes; mean where tested more than once

By UniProt entry, the sequences of proteins in these tests, tags left out. Where a name states a change or a piece, a line headed by the entry shows the natural chain unless it says otherwise.
UniProt P41146: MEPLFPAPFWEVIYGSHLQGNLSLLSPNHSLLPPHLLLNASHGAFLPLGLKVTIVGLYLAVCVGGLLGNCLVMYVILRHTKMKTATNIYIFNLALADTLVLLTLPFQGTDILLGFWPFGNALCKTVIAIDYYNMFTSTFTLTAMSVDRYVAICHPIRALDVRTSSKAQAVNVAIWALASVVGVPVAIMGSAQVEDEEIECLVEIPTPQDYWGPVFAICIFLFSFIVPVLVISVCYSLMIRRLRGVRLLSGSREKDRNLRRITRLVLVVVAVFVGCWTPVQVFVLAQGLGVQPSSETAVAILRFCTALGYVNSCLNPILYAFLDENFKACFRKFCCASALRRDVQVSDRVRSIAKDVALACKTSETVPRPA
UniProt P33535: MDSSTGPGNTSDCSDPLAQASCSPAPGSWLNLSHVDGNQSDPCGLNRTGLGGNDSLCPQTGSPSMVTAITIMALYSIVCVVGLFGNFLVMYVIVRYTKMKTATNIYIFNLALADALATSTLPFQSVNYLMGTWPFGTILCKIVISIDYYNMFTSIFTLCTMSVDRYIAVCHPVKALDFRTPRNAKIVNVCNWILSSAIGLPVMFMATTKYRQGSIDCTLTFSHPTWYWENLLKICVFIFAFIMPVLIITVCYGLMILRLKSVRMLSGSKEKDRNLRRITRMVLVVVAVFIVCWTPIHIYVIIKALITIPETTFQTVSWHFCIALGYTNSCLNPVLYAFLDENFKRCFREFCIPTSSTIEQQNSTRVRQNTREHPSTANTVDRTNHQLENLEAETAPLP

| Substance | Ki [1] [nM] | Ki (Mu opioid receptor) [nM] |
| --- | --- | --- |
| 8-(R)-Acenaphthen-1-yl-3-[2-(4-dimethylaminomethyl-[1,2,3]triazol-1-yl)-ethyl]-1-(4-fluoro-phenyl)-1,3,8-triaza-spiro[4.5]decan-4-one | 0.3 | 9.25 |
| 8-(S)-Acenaphthen-1-yl-3-[2-(4-dimethylaminomethyl-[1,2,3]triazol-1-yl)-ethyl]-1-(4-fluoro-phenyl)-1,3,8-triaza-spiro[4.5]decan-4-one | 0.81 | 35 |
